Data on one compound can be found in ChEMBL document CHEMBL4000185, “Pyrimidine-Based Inhibitors of Dynamin I GTPase Activity: Competitive Inhibition at the Pleckstrin Homology Domain” (J Med Chem, 2017).

Sequences of proteins named here, by UniProt entry; tags and fusion partners are left off. A change or cut given only in a name is not applied to a line headed by its entry.
UniProt P34975: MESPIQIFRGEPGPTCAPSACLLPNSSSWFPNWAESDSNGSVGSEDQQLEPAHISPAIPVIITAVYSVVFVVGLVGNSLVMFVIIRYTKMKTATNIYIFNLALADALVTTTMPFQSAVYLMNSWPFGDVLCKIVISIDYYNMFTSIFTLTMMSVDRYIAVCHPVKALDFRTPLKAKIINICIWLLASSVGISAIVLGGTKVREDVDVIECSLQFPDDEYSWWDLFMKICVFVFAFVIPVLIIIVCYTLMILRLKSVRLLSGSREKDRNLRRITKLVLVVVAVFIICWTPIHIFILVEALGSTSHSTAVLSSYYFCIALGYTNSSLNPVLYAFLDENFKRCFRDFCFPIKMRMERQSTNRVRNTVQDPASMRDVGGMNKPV

In the experiment the target is Kappa-type opioid receptor (Rattus norvegicus, UniProt P34975). Kind of experiment: Displacement of [3H]U 69593 from rat recombinant kappa opioid receptor expressed in CHO cells after 60 mins by scintillation counting. (Loss of bound radioactivity is the signal in a displacement assay; it reports binding, not function.)

For `CN(C(=O)Cc1ccc(Cl)c(Cl)c1)C1CCCCC1N1CCCC1` (configuration not stated), the IC50 is 0.68 nM and the Ki came out at 0.45 nM.

For orientation: IC50 means the concentration needed to halve the response being measured. As a reminder, the Ki is the dissociation constant of the complex between target and ligand, obtained from inhibition or displacement.
